# Literature values in article PMC2751796 (Pharmacology & therapeutics, 2009).
# Experiments:
# P-gp [1] = details: ref Schinkel et al., 1994; cited from earlier work
# P-gp [2] = details: ref Hugnet et al., 1996; Mealey et al., 2001, 2003, 2008; Sartor et al., 2004; cited from earlier work
substance,measurement,setting,value
ivermectin,Greater sensitivity to neurotoxicity in Mdr1a-/- KO mice,P-gp [1],~100 fold
same,Effect of exposure in Collie and other dog breeds that naturally lack P-gp,P-gp [2],neurological symptoms
